# In PubChem BioAssay AID1051 (The Scripps Research Institute Molecular Screening Center, 2008):
# The list shows a part of the results, in another mix than the full data. Calls of active or inactive are those of the source. Cut-off read from the data, not from the text of the source: active = TR-FRET ratio above about 2300; inactive = the rest.
# Experiment: signal artefacts in PPARgamma/SRC-1 readout – biochemical, TR-FRET emission ratio, artefact control for PPARgamma SRC-1 recruitment agonists, primary screen (AID 1051)
# Details: TR-FRET detection artefact counter-screen, at 8 µM, stronger effect = higher value
row,SMILES,TR-FRET ratio
1,O=P(Nc1ccccn1)(c1cccc2ccccc12)c1cccc2ccccc12,inactive: 1810
2,Cc1cc(SC(NC=O)C(Cl)(Cl)Cl)ncn1 (configuration not stated),inactive: 1520
3,Cc1cc(SC(NC(=O)c2ccccc2)C(Cl)(Cl)Cl)nc(C(C)C)n1 (configuration not stated),inactive: 1650
4,COc1ccc(N/C(=N/P(=O)(N2CCOCC2)N2CCOCC2)N2CCOCC2)cc1,inactive: 1700
5,COc1ccc2nc(NP(=O)(c3ccccc3)c3ccccc3)sc2c1,inactive: 1900
6,Cc1c2c(nc3ccccc13)SC(C(Cl)Cl)C2 (configuration not stated),inactive: 1780
7,Cc1cc(=O)[nH]c(N[N+](=O)[O-])n1,inactive: 1500
8,CC(C)NC(=O)NP(=O)(Oc1ccccc1)Oc1ccccc1,inactive: 1840
9,O=[N+]([O-])c1cc([N+](=O)[O-])c(-c2ccn[nH]2)s1,inactive: 1910
10,Cc1ccc2nc3c(c(C)c2c1)CC(C(Cl)Cl)S3 (configuration not stated),inactive: 1800
11,O=P(Nc1nccs1)(c1ccccc1)c1nc2ccccc2s1 (configuration not stated),inactive: 1720
12,O=P(Nc1nccs1)(Oc1ccccc1)Oc1ccccc1,inactive: 1790
13,COc1cc(C2NCCC3(OCCO3)C2(C)C)cc(OC)c1OC (configuration not stated),inactive: 1840
14,CCOP(=O)(Nc1cccc2ccccc12)OCC,inactive: 1950
15,Cc1ccc(NCCc2c([N+](=O)[O-])cc([N+](=O)[O-])cc2[N+](=O)[O-])cc1,inactive: 1750
16,COc1cc(C(=O)NCC2(N3CCOCC3)CCCCC2)cc(Cl)c1OC(C)C,inactive: 1810
17,CC(C)/C=N\N=C(\N)N[N+](=O)[O-],inactive: 1660
18,CN(C(=O)Cc1ccc(Cl)c(Cl)c1)[C@@H]1CCCC[C@H]1N1CCCC1,inactive: 1820
19,CN(C)C1(CNC(=O)c2ccc(S(C)(=O)=O)cc2)CCCCC1,inactive: 1650
20,CC1CCC(C(C)C)C(OP(=O)(Nc2ccccn2)c2ccccc2)C1 (configuration not stated),inactive: 1840
21,C(Cc1nn[nH]n1)Cc1nn[nH]n1,inactive: 1760
22,CC(=O)NC(SC(=S)N(C)C)C(Cl)(Cl)Cl (configuration not stated),inactive: 1770
23,O=P(Nc1ccccn1)(c1ccc(Br)cc1)c1ccc(Br)cc1,inactive: 1870
24,CC(C)C(=O)NC(Sc1ccccc1)C(Cl)(Cl)Cl (configuration not stated),inactive: 1670

row,SMILES,TR-FRET ratio
1,CC(=O)Nc1ccc(Oc2c([N+](=O)[O-])cc([N+](=O)[O-])cc2[N+](=O)[O-])cc1,inactive: 1970
2,CC(C)(C)C(=O)NC(Sc1ccccc1)C(Cl)(Cl)Cl (configuration not stated),inactive: 1650
3,CCOc1ccc(C2=NCC(CBr)S2)cc1 (configuration not stated),inactive: 1670
4,O=c1c2cc([N+](=O)[O-])ccc2[nH]c2c([N+](=O)[O-])cc([N+](=O)[O-])cc12,inactive: 1770
5,CC(=O)NC(SC(=S)N(CC(C)C)CC(C)C)C(Cl)(Cl)Cl (configuration not stated),inactive: 2050
6,Cc1ccc(OP(=O)(Nc2ccccn2)Oc2ccc(C)cc2)cc1,inactive: 1640
7,c1ccc(-c2nn[nH]n2)c(-c2nn[nH]n2)c1,inactive: 1520
8,CCNC(=S)/N=C(\N)N[N+](=O)[O-],inactive: 1720
9,O=C(NC1CCS(=O)(=O)C1)NP(=S)(Oc1ccccc1)Oc1ccccc1 (configuration not stated),inactive: 2010
10,CCN(N=Nc1nonc1N)c1nonc1N,inactive: 1700
11,Cc1cc(SC(NC(=O)c2ccc(F)cc2)C(Cl)(Cl)Cl)ncn1 (configuration not stated),inactive: 1870
12,O=C(NC(Sc1ccncn1)C(Cl)(Cl)Cl)c1ccccc1 (configuration not stated),inactive: 1810
13,Clc1ccc(Cl)c(NC2=NCC(CBr)S2)c1 (configuration not stated),inactive: 1830
14,COc1ccccc1OP(=O)(Nc1ccc(C)cn1)Oc1ccccc1OC,inactive: 1710
15,Cc1ccc(N/C(=N/P(=O)(N2CCOCC2)N2CCOCC2)N2CCOCC2)cc1,inactive: 1790
16,NC(=O)c1cc([N+](=O)[O-])cc([N+](=O)[O-])c1N,inactive: 1770
17,CC(C)=N/N=C(\N)N[N+](=O)[O-],inactive: 1630
18,CN(C)C(=O)OCCc1n(C)cc[n+]1C,inactive: 1530
19,CCN(/C(=N/P(=O)(N1CCOCC1)N1CCOCC1)N1CCOCC1)c1ccc(OC)cc1,inactive: 1700
20,Cc1ccc(NP(=O)(Oc2ccccc2)Oc2ccccc2)nc1,inactive: 1770
21,O=[N+]([O-])c1cc([N+](=O)[O-])c(CCNc2ccccc2)c([N+](=O)[O-])c1,inactive: 2040
22,COc1ccc(C2=NCC(CBr)S2)cc1 (configuration not stated),inactive: 1780
23,O=[N+]([O-])c1ncn(CCn2ncnc2[N+](=O)[O-])n1,inactive: 1590
